Experimental data as given in US7868032B2.

The chains behind the UniProt entries cited, without tags or fusion partners.
UniProt Q13258, whole entry: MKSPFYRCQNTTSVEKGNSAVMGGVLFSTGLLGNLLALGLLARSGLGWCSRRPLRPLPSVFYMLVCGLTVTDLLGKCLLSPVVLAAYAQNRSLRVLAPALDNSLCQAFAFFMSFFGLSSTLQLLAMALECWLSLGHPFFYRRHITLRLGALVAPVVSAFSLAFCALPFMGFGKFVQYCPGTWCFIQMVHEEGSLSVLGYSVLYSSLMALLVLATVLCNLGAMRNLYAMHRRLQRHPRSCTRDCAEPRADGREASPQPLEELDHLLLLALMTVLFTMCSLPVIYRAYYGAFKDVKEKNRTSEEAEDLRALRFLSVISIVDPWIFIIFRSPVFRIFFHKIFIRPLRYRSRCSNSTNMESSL
UniProt P21731, whole entry: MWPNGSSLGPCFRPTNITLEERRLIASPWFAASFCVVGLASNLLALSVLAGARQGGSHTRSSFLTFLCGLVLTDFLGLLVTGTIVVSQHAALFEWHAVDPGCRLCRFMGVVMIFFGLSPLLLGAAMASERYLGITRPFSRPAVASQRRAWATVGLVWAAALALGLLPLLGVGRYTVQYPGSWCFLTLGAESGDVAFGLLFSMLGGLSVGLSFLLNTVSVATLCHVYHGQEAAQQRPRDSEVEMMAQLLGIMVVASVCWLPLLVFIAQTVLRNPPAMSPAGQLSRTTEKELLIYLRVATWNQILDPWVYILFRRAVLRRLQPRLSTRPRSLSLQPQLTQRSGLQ
UniProt P43088, whole entry: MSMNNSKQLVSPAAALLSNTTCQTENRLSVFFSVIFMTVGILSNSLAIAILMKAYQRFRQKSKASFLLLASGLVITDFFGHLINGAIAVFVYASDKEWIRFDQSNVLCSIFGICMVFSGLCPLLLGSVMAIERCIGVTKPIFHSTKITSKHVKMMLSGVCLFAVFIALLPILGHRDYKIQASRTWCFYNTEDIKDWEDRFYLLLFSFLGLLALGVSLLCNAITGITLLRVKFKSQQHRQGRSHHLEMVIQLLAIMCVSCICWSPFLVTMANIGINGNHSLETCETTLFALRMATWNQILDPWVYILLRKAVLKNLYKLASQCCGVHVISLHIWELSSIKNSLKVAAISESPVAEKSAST
UniProt P35408, whole entry: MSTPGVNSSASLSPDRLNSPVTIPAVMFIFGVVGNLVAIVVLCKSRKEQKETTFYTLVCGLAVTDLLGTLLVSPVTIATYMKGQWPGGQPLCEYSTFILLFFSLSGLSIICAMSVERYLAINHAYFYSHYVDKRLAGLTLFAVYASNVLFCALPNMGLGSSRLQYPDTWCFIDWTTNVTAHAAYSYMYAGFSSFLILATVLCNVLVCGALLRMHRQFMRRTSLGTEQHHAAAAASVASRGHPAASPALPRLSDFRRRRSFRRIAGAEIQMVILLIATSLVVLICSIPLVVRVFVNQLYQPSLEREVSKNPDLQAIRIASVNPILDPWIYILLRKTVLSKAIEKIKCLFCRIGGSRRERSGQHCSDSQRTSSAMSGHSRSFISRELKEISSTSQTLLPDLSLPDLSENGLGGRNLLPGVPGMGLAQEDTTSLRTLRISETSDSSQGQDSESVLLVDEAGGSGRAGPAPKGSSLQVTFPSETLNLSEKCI

How the values were obtained:
[1] = tested on: Pamide (prostamide receptor), Cat Iris; test: Feline iris sphincter contraction, antagonism of prostamide; details: read-out: Kb Pamide Cat Iris; isolated feline iris; antagonist given 30 minutes before agonist curve; NA = inactive
Description: (§1) The test systems employed included the isolated feline iris as a key preparation since both prostamides (prostaglandin ethanolamides) and prostanoid FP receptor agonists potently elicit a contractile response in this tissue (Woodward et al., 2003; Matias et al., 2004). Activity at human prostanoid receptors was determined using recombinant receptors stably transfected into HEK-293 EBNA cells, using chimeric G proteins to enable Ca^2+ signal responses to all receptor subtypes, as previously described (Woodward et al., 2003: Matias et al, 2004)
(§2) Claas A laboratory bred cats were housed communally in USDA and AAALAC approved facilities, with standards that exceeded those for enrichment and group housing. Water was available ad libitum and food was standard cat nutritional diet. They were kept on a 12 hr light-dark cycle. They (96) were euthanized by i.v. overdose of sodium pentobarbital (Anthony, Arcadia, Calif.). The eyes were enucleated immediately thereafter and placed on ice. Two eyes provided a total of four iridial preparations. The iris sphincter was mounted vertically under 50- to 100 mg tension in a jacketed 10 ml organ bath. Smooth muscle tension of the isolated iris sphincter was measured isometrically with force displacement transducers (Grass FT-03) and recorded on a Grass polygraph (Model 7). The organ baths contained Krebs' solution maintained at 37° C. by a heat exchanger and circulating pump. […] Activity was manifest as contractile responses and measured as such. […]
The feline iris experiments were designed so that a direct, four-way comparison for antagonist vs. prostamide, vehicle vs. prostamide, antagonist vs. corresponding PG, and vehicle vs. corresponding PG was provided in tissue preparations obtained from a single animal. […] The response to PGF2α10^−7M was determined at the beginning and end of each dose response curve, with appropriate wash-out, and responses were calculated as % of this reference contraction.

[2] = target: human recombinant DP receptor (Homo sapiens, UniProt Q13258); test: Ca2+ signal (FLIPR), human recombinant DP receptor in HEK-293 EBNA cells; details: read-out: Kb DP h, NA = inactive
Description: as §1
(§3) The use of chimeric G protein cDNAs allowed responses to Gs and Gi coupled prostanoid receptors to be measured as a Ca^2+ signal, as previously described (Woodward et al., 2003; Matias et al., 2004). Prostanoid DP, EP2, and EP4 receptor cDNAs were co-transfected with chimeric Gqs cDNA containing a haemagglutanin (HA) epitope. […] Because Gqs and Gqi contained an HA epitope, protein expression was detected by Western blotting analysis using anti-mouse HA monoclonal antibody and HRP conjugated secondary antibody. […]
(§4) Ca^2+ signaling studies were performed using a FLIPR (fluorometric imaging plate reader) instrument. […] Cells were excited with an argon laser at 488 nm and emission was measured through a 510-570 nm band width emission filter (FLIPR, Molecular Devices, Sunnyvale, Calif.). The peak increase in fluorescence intensity was recorded for each well. […]

[3] = target: human recombinant TP receptor (Homo sapiens, UniProt P21731); test: Ca2+ signal (FLIPR), human recombinant TP receptor in HEK-293 EBNA cells; details: read-out: Kb TP h, NA = inactive
Description: as §1
(§5) The use of chimeric G protein cDNAs allowed responses to Gs and Gi coupled prostanoid receptors to be measured as a Ca^2+ signal, as previously described (Woodward et al., 2003; Matias et al., 2004). Prostanoid DP, EP2, and EP4 receptor cDNAs were co-transfected with chimeric Gqs cDNA containing a haemagglutanin (HA) epitope. The prostanoid EP3 receptor was co-transfected into HEK-293 EBNA cells, using pCEP4 as a vector, with chimeric Gqi-HA. Gqs and Gqi chimeric cDNAs (Molecular Devices, Sunnyvale, Calif.) were cloned into a pCEP4 vector and also selected by using a hygromycin B selection marker. Transfection into HEK-293 EBNA cells was achieved by the FuGENE 6 method. Because Gqs and Gqi contained an HA epitope, protein expression was detected by Western blotting analysis using anti-mouse HA monoclonal antibody and HRP conjugated secondary antibody. For human recombinant EP1, FP, IP, and TP receptors, stable transfectants were obtained as previously described (Woodward et al., 2003; Matias et al., 2004). […]
(§6) Ca^2+ signaling studies were performed using a FLIPR (fluorometric imaging plate reader) instrument. […] Cells were excited with an argon laser at 488 nm and emission was measured through a 510-570 nm band width emission filter (FLIPR, Molecular Devices, Sunnyvale, Calif.). The peak increase in fluorescence intensity was recorded for each well.
(§7) The experimental design for the FLIPR studies was as follows. […] The peak fluorescence change in each well containing drug was expressed relative to the controls. […]

[4] = target: human recombinant FP receptor (Homo sapiens, UniProt P43088); test: Ca2+ signal (FLIPR), human recombinant FP receptor in HEK-293 EBNA cells; details: for Kb: read-out: Kb FP (h FP), value in brackets, NA = inactive
Description: as §1, §5, §6, §7

[5] = tested on: FP receptor, Cat Iris; test: Feline iris sphincter contraction, antagonism of corresponding PG (FP); details: isolated feline iris, value outside brackets, NA = inactive
Description: as §1
as §2, with “7).” for “7). The organ baths contained Krebs' solution maintained at 37° C. by a heat exchanger and circulating pump.”

[6] = target: human recombinant EP4 receptor (Homo sapiens, UniProt P35408); test: Ca2+ signal (FLIPR), human recombinant EP4 receptor in HEK-293 EBNA cells; details: read-out: Kb EP4 h, NA = inactive
Description: as §1, §3, §4

CC(C)NC(=O)COc1ccc(F)cc1CC1C2CCC(O2)C1c1nc(C(=O)NCCCCC2CCCCC2)co1 (centres unmarked)
Kb [1]: 0.303 µM | Kb [2]: 40.9 µM | Kb [3]: 0.111 µM | Kb [4]: 13.1 µM

CCCNC(=O)COc1ccc(F)cc1CC1C2CCC(O2)C1c1nc(C(=O)NCCCCC2CCCCC2)co1 (centres unmarked)
Kb [1]: 0.356 µM | Kb ([5]; read-out: Kb FP Cat Iris): 54 µM | Kb [6]: 9.05 µM | Kb [3]: 0.1 µM | Kb [4]: 33.6 µM

CCNC(=O)COc1ccc(F)cc1CC1C2CCC(O2)C1c1nc(C(=O)NCCCCC2CCCCC2)co1 (centres unmarked)
Kb [1]: 0.236 µM | Kb FP Cat Iris [5]: NA(NA) | Kb [6]: 37 µM | Kb [3]: 0.016 µM | Kb FP (h FP) ([4]; value in brackets, NA = inactive): NA(NA)
